# Assay results from US7833722B2, “Ligands for G protein-coupled receptor protein and use thereof” (Takeda Pharmaceutical Company Limited, priority 2004, dated 2010).
# Sequences of proteins named here, by UniProt entry; tags and fusion partners are left off.
# UniProt O14842, whole entry: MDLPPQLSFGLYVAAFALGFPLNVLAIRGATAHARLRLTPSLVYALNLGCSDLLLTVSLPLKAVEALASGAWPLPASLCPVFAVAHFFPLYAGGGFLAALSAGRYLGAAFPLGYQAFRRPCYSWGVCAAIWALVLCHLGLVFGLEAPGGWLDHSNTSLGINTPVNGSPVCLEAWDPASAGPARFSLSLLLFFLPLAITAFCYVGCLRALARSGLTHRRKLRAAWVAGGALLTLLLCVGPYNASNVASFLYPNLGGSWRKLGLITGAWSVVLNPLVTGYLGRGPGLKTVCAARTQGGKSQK
# Target: T1, GPR40 (Homo sapiens, UniProt O14842)
# T1 construct: expressed in transfected cells; host or cells: GPR40 expression cells
# Assay: SRE-luciferase reporter assay in GPR40 expression cells used for control
# Format: cell-based
# Conditions: PBG
smiles,measurement,value
"NCc1[nH]cc(CCC(=O)O)c1CC(=O)O [PBG, porphobilinogen]",luciferase activity in the GPR40 expression cells used for control (in words),did not show any significant increase
